Permeability data for macrocyclic peptides

Source: CycPeptMPDB (Li et al. 2023), which took these values from Townsend et al. 2020, doi:10.26434/chemrxiv.13335941.v1.

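Conditions beyond the assay type are not listed; see the original paper. Other peptides of the study may be missing here. Peptides that the database sets to -10, its floor, are left out.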

PAMPA is the parallel artificial membrane permeability assay, which has no cells and reads passive diffusion. P is given in units of 10^-6 cm/s (from log10 values with two decimals); larger means faster passage.

structure (SMILES) | PAMPA (10^-6 cm/s)
CC(C)C[C@H]1NC(=O)[C@@H]2CCCN2C(=O)C[C@H](Cc2ccccc2)NC(=O)[C@H](CC(C)C)N(C)C(=O)[C@H](C)N(C)C(=O)[C@H](Cc2ccccc2)NC1=O | 2
CC(C)C[C@@H]1NC(=O)[C@H](C)NC(=O)[C@H](Cc2ccccc2)NC(=O)[C@H](CC(C)C)N(C)C(=O)[C@@H]2CCCN2C(=O)C[C@H](Cc2ccccc2)NC1=O | 2.6
CC(C)C[C@@H]1C(=O)N[C@@H](Cc2ccccc2)C(=O)N2CCC[C@@H]2C(=O)N[C@@H](Cc2ccccc2)CC(=O)N(Cc2ccccc2)CC(=O)N[C@@H](Cc2ccccc2)CC(=O)N2CCC[C@@H]2C(=O)N1C | 1.2
CC(C)C[C@@H]1C(=O)N[C@@H](Cc2ccccc2)C(=O)N2CCC[C@H]2C(=O)N(C)[C@@H](C)C(=O)N(Cc2ccccc2)CC(=O)N[C@H](CC(C)C)C(=O)N2CCC[C@H]2C(=O)N1C | 6
CCCN1CC(=O)N(C)[C@H](CC(C)C)C(=O)N(Cc2ccccc2)CC(=O)N2CCC[C@@H]2C(=O)N(C)[C@H](CC(C)C)C(=O)N[C@@H](Cc2ccccc2)C1=O | 4.6
CC(C)C[C@H]1NC(=O)[C@H](C)N(C)C(=O)[C@H]2CCCN2C(=O)[C@H](Cc2ccccc2)NC(=O)CN(Cc2ccccc2)C(=O)[C@H]2CCCN2C(=O)[C@@H](CC(C)C)NC1=O | 0.66
CC(C)C[C@H]1NC(=O)[C@@H]2CCCN2C(=O)CN(Cc2ccccc2)C(=O)[C@@H](CC(C)C)NC(=O)C[C@H](Cc2ccccc2)NC(=O)[C@H]2CCCN2C(=O)[C@H](Cc2ccccc2)NC1=O | 1.9
CCCN1CC(=O)N[C@@H](CC(C)C)C(=O)N[C@@H](CC(C)C)C(=O)N2CCC[C@H]2C(=O)N(Cc2ccccc2)CC(=O)N[C@@H](Cc2ccccc2)C1=O | 3.8
CCCN1CC(=O)N[C@@H](CC(C)C)C(=O)N(C)[C@H](CC(C)C)C(=O)N2CCC[C@H]2C(=O)N(C)[C@H](CC(C)C)C(=O)N[C@@H](Cc2ccccc2)C(=O)N2CCC[C@H]2C1=O | 12
CCCN1CC(=O)N(C)[C@H](CC(C)C)C(=O)N[C@H](CC(C)C)C(=O)N2CCC[C@@H]2C(=O)N(C)[C@H](CC(C)C)C(=O)N[C@@H](Cc2ccccc2)C1=O | 7.9
CCCN1CC(=O)N[C@@H](CC(C)C)C(=O)N(Cc2ccccc2)CC(=O)N2CCC[C@H]2C(=O)N[C@H](CC(C)C)C(=O)N[C@@H](Cc2ccccc2)C1=O | 2.2
CC(C)C[C@@H]1NC(=O)[C@@H]2CCCN2C(=O)C[C@H](Cc2ccccc2)NC(=O)[C@@H](CC(C)C)N(C)C(=O)[C@@H](C)N(C)C(=O)[C@H](Cc2ccccc2)NC1=O | 3.8
CC(C)C[C@@H]1C(=O)N2CCC[C@H]2C(=O)N(Cc2ccccc2)CC(=O)N[C@@H](Cc2ccccc2)C(=O)N2CCC[C@H]2C(=O)N(C)[C@H](C)C(=O)N[C@H](CC(C)C)C(=O)N1C | 4.4
CC(C)C[C@@H]1C(=O)N[C@@H](Cc2ccccc2)C(=O)N2CCC[C@@H]2C(=O)N[C@H](C)C(=O)N(C)[C@@H](CC(C)C)C(=O)N(Cc2ccccc2)CC(=O)N2CCC[C@H]2C(=O)N1C | 0.42

The first 2 entries again:

structure (SMILES) | PAMPA (10^-6 cm/s)
CC(C)C[C@H]1NC(=O)[C@@H]2CCCN2C(=O)C[C@H](Cc2ccccc2)NC(=O)[C@H](CC(C)C)N(C)C(=O)[C@H](C)N(C)C(=O)[C@H](Cc2ccccc2)NC1=O | 2
CC(C)C[C@@H]1NC(=O)[C@H](C)NC(=O)[C@H](Cc2ccccc2)NC(=O)[C@H](CC(C)C)N(C)C(=O)[C@@H]2CCCN2C(=O)C[C@H](Cc2ccccc2)NC1=O | 2.6